What was measured:
[1] = biological target: R132H-IDH1 in MUM2C cells (Homo sapiens, UniProt O75874, R132H); conditions: 50 μM, 2 h in situ, assayed ex situ
IDH1 C269 = IDH1 C269 (Homo sapiens, UniProt O75874, R132H); experiment: Competitive isoTOP-ABPP in situ, R132H-IDH1-expressing MUM2C cells; conditions: 50 μM, 2 h
IDH1 = biological target: T1, IDH1 (Homo sapiens, UniProt O75874, C269S); experiment: IDH1 NADP assay; assay type: biochemical
T1 construct: Full length cDNAs encoding for IDH1 (Open Biosystems, Clone ID: 3880331) and IMPDH2; His6 (C); made in house; host or cells: E. coli BL21(DE3)
Description: To 25 μL of this mixture was added 1 μL of the indicated compound (25× stock solution in DMSO) and the lysates were incubated for 1 h at room temperature in clear 96 well plates (Corning® Costar®). […] Absorbance was measured for 45 minutes and the relative activities were calculated from the change in absorbance for the linear portion of the curve.

The chains behind the UniProt entries cited, without tags or fusion partners. Residues count along the entry.
UniProt O75874, whole entry R132H: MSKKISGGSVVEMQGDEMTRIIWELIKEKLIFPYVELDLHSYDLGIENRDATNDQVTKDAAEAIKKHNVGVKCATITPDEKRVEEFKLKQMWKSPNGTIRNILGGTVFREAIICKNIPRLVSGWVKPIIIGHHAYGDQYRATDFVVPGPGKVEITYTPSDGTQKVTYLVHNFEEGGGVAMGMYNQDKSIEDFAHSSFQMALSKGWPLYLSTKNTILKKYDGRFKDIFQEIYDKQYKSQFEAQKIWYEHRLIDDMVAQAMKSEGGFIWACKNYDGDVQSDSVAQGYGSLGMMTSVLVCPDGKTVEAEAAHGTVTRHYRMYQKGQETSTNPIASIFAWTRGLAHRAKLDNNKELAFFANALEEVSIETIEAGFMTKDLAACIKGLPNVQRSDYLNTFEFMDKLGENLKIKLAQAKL
UniProt O75874, 2-414 R132H: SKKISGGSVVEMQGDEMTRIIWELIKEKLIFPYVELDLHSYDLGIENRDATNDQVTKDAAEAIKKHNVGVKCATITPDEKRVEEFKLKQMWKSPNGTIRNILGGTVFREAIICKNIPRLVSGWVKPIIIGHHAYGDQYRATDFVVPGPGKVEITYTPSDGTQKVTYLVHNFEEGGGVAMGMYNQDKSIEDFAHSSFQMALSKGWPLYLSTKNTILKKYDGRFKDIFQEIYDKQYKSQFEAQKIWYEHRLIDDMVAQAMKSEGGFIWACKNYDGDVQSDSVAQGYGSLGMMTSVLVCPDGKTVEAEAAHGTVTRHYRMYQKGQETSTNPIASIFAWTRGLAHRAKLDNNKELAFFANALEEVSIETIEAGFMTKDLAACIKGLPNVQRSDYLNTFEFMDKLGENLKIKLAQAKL
UniProt O75874, whole entry C269S: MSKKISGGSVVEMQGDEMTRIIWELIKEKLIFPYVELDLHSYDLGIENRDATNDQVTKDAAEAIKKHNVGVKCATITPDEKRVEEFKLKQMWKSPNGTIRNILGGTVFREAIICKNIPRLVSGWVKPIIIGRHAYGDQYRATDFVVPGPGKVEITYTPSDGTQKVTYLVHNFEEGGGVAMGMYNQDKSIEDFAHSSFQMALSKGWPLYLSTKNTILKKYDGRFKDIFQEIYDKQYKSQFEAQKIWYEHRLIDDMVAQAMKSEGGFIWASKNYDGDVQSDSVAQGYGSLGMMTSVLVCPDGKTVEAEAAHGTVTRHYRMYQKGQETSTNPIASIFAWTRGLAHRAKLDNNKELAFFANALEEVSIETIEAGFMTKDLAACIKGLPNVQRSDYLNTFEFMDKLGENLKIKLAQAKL

Structure (SMILES) | 2-HG production by R132H cell lysates [1] | IA-alkyne labeling of C269 of IDH1 in situ (IDH1 C269) | catalytic activity of C269S-IDH1 mutant (IDH1)
COc1ccc2c(c1)CCCN2C(=O)CCl [compound 2] | slight decrease | but not | 
O=C(CCl)N1CCC(C(O)(c2ccccc2)c2ccccc2)CC1 [compound 20] |  | inhibited | did not inhibit

Source: patent US10670605B2, “Cysteine reactive probes and uses thereof” (The Scripps Research Institute, priority 2015, dated 2020)
